Measurements taken from patent EP4840856A1, “NOVEL COMPOUND AND USES THEREOF” (dated 2026).

By UniProt entry, the sequences of proteins in these tests, tags left out.
UniProt P48436, whole entry: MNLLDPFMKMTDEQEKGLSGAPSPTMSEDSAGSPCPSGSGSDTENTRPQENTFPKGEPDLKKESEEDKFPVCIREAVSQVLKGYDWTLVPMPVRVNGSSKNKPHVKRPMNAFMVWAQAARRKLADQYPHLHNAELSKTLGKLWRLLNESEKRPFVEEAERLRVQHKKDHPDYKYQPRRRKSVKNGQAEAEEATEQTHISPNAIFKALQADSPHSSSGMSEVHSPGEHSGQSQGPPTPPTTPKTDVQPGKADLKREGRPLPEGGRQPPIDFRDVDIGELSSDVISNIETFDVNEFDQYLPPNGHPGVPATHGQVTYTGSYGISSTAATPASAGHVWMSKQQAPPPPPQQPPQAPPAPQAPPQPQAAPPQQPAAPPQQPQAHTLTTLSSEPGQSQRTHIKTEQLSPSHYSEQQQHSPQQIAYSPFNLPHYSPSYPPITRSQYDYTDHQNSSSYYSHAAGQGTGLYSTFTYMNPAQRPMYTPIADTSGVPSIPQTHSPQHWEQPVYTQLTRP
UniProt Q04887, whole entry: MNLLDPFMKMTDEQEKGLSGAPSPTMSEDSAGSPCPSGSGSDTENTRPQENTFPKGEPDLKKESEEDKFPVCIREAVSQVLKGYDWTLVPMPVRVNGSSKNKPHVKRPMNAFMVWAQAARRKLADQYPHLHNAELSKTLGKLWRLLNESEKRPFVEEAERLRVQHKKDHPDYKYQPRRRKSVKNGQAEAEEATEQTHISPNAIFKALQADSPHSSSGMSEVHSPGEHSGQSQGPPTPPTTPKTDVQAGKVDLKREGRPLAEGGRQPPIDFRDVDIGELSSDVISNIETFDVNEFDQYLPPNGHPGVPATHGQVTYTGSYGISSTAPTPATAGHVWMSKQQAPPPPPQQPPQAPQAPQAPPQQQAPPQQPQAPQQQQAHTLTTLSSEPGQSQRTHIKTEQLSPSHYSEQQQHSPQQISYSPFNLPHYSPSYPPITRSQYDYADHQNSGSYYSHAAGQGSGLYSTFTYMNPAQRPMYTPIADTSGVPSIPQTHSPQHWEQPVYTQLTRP

Key:
SOX9 [1] = molecular target: SOX9 (Homo sapiens, UniProt P48436); test: SOX9 condensation in SOX9-eGFP overexpressing cell lysate, confocal fluorescence imaging; conditions: 1 hour at room temperature, compared to DMSO, FIG. 3a
Experimental: In a 100-mm dish, 9 × 10^5 cells to be transfected were seeded and grown for two days in a cell incubator. The grown cells were transfected with 7 µg of an SOX9-eGFP plasmid capable of overexpression in cells, using a transfection reagent (Poly-jet). Here, the cells were exposed to an FBS-free DMEM medium for 30 minutes. After 30 minutes, the SOX9-eGFP plasmid and Polyjet were mixed in DMEM and added to the cells after waiting for 10 minutes. After reacting in the incubator for 4 hours, an FBS-containing DMEM medium was added, and the cells were placed in the incubator for two days. Thereafter, the cells were detached using a scraper and centrifuged. Only the cell pellets were frozen in liquid nitrogen and stored in a -80°C freezer.
A cell lysis buffer containing 0.2% Triton X-100, 1 mM EDTA, 50 mM HEPES, 150 mM NaCl, 10% glycerol, 1% protease inhibitor cocktail, 1% phosphatase inhibitor cocktail (tyrosine, serine/threonine), and 2 mM TCEP was added to the cell pellets to disperse the pellets. […] The total protein concentration of the supernatant obtained was measured using a DC (detergent-compatible) assay, and the SOX9-eGFP concentration was measured using a fluorometer. The cell lysate, with its concentration measured, was used immediately or frozen in liquid nitrogen and stored at -80°C. […]
The fluorescence images taken were analyzed using an in-house MATLAB code. […]

SOX9 [2] = molecular target: T1, SOX9 (Mus musculus, UniProt Q04887); test: SOX9 transcriptional activity luciferase assay (4X48pCol2a1-Luciferase / Renilla); conditions: for increase of SOX9 transcriptional activity: luciferase plasmid responding specifically to SOX9 transcriptional activity, FIG. 3b; for SOX9 activity: luminescence from the luciferase relative to DMSO, mouse primary chondrocytes, final concentration 7.5 mM as printed, 48 hours
Experimental: To confirm whether the compounds would enhance the SOX9 transcriptional activity, a luciferase assay capable of measuring SOX9 transcriptional activity was carried out using the following experimental method.
Mouse primary chondrocytes were extracted from mouse cartilage. The extracted cells were stabilized in a low-oxygen-environment incubator (O2 3%, CO2 5%). Here, the medium used was DMEM (Dulbecco Modified Eagle Medium, LM001-05, Welgene) supplemented with 10% FBS (fetal bovine serum, Gibco).
After cell stabilization, hyaluronidase type I-S (Sigma-Aldrich, Hase) was treated for 4 hours for transfection of the luciferase plasmid.
For transfection, Metafectene pro reagent (Biontex) was used to co-treat cells for 6 hours with the 4X48pCol2al-Luciferase plasmid, the expression of which is promoted by SOX9 transcriptional activity, and a Renilla luciferase plasmid, which is constitutively expressed as a transfection control. The 4X48pCol2a1-Luciferase plasmid and Renilla luciferase plasmid were as described in Kim, S. et al. "Tankyrase inhibition preserves osteoarthritic cartilage by coordinating cartilage matrix anabolism via effects on SOX9 PARylation," Nat Commun 10, 4898 (2019).
After 6 hours, the medium was replaced with a culture medium containing the compound. Here, each compound was dissolved in DMSO at a level of about 5 mM to 10 mM and dissolved in the medium to provide a final concentration of 7.5 mM.
After 48 hours, the cells were lysed and reacted with the luciferase substrate using a Dual Luciferase Assay Kit (Promega), and luminescence from the luciferase (relative to DMSO) was measured using a microplate reader. The results were classified according to the criteria below and shown in Table 6, providing the graph of FIG. 1.

[3] = tested on: DMM-induced osteoarthritis (OA) mice; test: Weight-bearing behavioral experiment in DMM osteoarthritis mice; conditions: change significant relative to DMSO-treated group, FIG. 16
Experimental: To confirm the recovery of osteoarthritis at the behavioral level, weight-bearing and Von-Frey behavioral experiments were performed. The weight-bearing experiment is an experiment that measures the degree to which the operated leg or non-operated leg bears weight upon drug treatment, to confirm the change in the degree of weight-bearing upon treatment with Compound C9 (FIG. 16).

SOX9 variants = test: Condensation in cell lysates of SOX9 deletion variants and aromatic amino acid mutants
Experimental: Specifically, based on Compound C9, which had been confirmed to be the most efficacious, the binding site of the drug was investigated. SOX9 is divided into structured and unstructured regions; in particular, IDR as an unstructured region is so large as to constitute about 80% of the protein (FIG. 5a). To investigate which region of interaction induces the condensation effect of Compound C9, SOX9 variants in which each region was deleted were prepared. As in the above Experimental Examples, cell lysates of the SOX9 variants were prepared, and it was confirmed that when C9 was deleted in the IDR region corresponding to the C-terminus of the protein, the condensation phenomenon was lost (FIG. 5b). Furthermore, in order to narrow down the binding site, deletion variants were constructed at 35-amino acid intervals across the C-terminal region, and cell lysates of the variants were prepared and examined. Here, when the regions corresponding to regions 8 and 9, where aromatic amino acids are clustered, were deleted, the condensation phenomenon was confirmed to decrease sharply (FIG. 5c).
Cell lysates expressing mutants in which aromatic amino acids were substituted with alanine were prepared, and the importance of aromatic amino acids was confirmed. As in the case of the variants in which regions 8 and 9 were deleted, mutations of aromatic amino acids corresponding to regions 8 and 9 reduced the condensation phenomenon induced by Compound C9 (FIG. 6). It was confirmed through this that Compound C9 induces SOX9 condensation through interaction with the region where aromatic amino acids are clustered, in the unstructured region of the C-terminus of SOX9.

OA-induced mice = test: Von-Frey behavioral experiment in osteoarthritis mice; conditions: FIG. 17
Text: The Von-Frey behavioral experiment assesses cartilage recovery in mice by gently stimulating the plantar surface of the paws and recording the stimulus intensity at which the mice withdraw their paws as the stimulation increases (FIG. 17). When cartilage recovery improves, the intensity of the stimulus that the mice can endure increases.

[4] = tested on: mouse model of osteoarthritis (OA) induced by DMM (destabilization of the medial meniscus) surgery; test: Recovery of cartilage tissue in DMM osteoarthritis mouse model; conditions: intra-articular injection 7 times at 1 week intervals, intra-articular concentration 750 µM, vs DMSO
Experimental: In order to confirm whether Compound C9 helps cartilage formation, an experiment was performed in which Compound C9 was injected intra-articularly a total of 7 times at intervals of 1 week so that the intra-articular concentration was 750 µM, in a mouse model of osteoarthritis (OA) induced by DMM (destabilization of the medial meniscus) surgery (FIG. 15a). […] To objectively evaluate the recovery of cartilage tissue, the OARSI Grade (a higher grade indicates greater damage to the cartilage tissue) was assessed through blinded testing by individual researchers.

SOX9 [5] = molecular target: T1, SOX9; test: Cut&Tag of SOX9 binding to DNA; conditions: DMSO subtracted, FIGS. 14a to 14f
Experimental: To investigate whether the SOX9 condensates altered by the drug are actually involved in transcriptional activity, a Cut&Tag experiment was performed to identify genome-wide DNA regions bound by SOX9. It was confirmed that SOX9 binding to DNA was increased upon drug treatment (FIG. 13).

SOX9 target genes = test: mRNA levels of SOX9 target genes (qPCR); conditions: compared to DMSO; FIG. 10

| Compound | SOX9 activity (SOX9 [2]) | also measured |
| --- | --- | --- |
| COc1ccc2cc(-c3csc(NC(=O)CCC(=O)NCCc4ccc(OC)c(OC)c4)n3)c(=O)oc2c1 | ++ (less than 5, 2 or more) | induction of SOX9 condensation (SOX9 [1]): induced the condensation of SOX9; increase of SOX9 transcriptional activity (SOX9 [2]): approximately 2 fold |
| O=C(CCC(=O)Nc1nc(-c2cc3ccc(Br)cc3oc2=O)cs1)NCCc1ccncc1 | ++ (less than 5, 2 or more) |  |
| COc1ccc2cc(-c3csc(NC(=O)CCC(=O)Nc4cccc5cccnc45)n3)c(=O)oc2c1 | ++++ (8 or more) |  |
| COc1ccc2cc(-c3csc(NC(=O)CCC(=O)NCCc4ccc5ccccc5c4)n3)c(=O)oc2c1 | ++ (less than 5, 2 or more) |  |
| O=C(CCC(=O)Nc1nc(-c2cc3cccc(O)c3oc2=O)cs1)NCCc1ccncc1 | ++ (less than 5, 2 or more) |  |
| COc1ccc(CCNC(=O)CCC(=O)Nc2nc(-c3cc4ccc(N(C)C)cc4oc3=O)cs2)cc1OC | ++ (less than 5, 2 or more) |  |
| COc1ccc2cc(-c3csc(NC(=O)CCC(=O)NCCc4cccs4)n3)c(=O)oc2c1 | ++ (less than 5, 2 or more) |  |
| COc1ccc2cc(-c3csc(NC(=O)CCC(=O)NCCc4ccncc4)n3)c(=O)oc2c1 | ++++ (8 or more) | weight-bearing levels [3]: comparable to those observed in non-OA-induced mice; SOX9 condensation with deletion of the IDR region at the C-terminus (SOX9 variants; SOX9 deletion variant lysates, FIG. 5b): the condensation phenomenon was lost; SOX9 condensation with deletion of C-terminal regions 8 and 9 (SOX9 variants; deletion variants at 35-amino acid intervals across the C-terminal region, FIG. 5c): decrease sharply; SOX9 condensation with aromatic amino acids of regions 8 and 9 substituted with alanine (SOX9 variants; mutant cell lysates, FIG. 6): reduced the condensation phenomenon; stimulus intensity endured (Von-Frey) (OA-induced mice): able to endure greater stimulus intensity; induction of SOX9 condensation (SOX9 [1]): induced the condensation of SOX9; OARSI grade ([4]; blinded, FIG. 15c): statistically significantly lower; recovery of damaged cartilage tissue ([4]; FIG. 15b): the damaged cartilage tissue was found to have recovered; SOX9 binding to DNA of Col9a1, Acan and Comp (SOX9 [5]): increase binding at specific regions of the DNA; SOX9 binding to DNA of SOX9, Col2a1 and Chad (SOX9 [5]): increase SOX9 binding throughout the DNA; increase of SOX9 transcriptional activity (SOX9 [2]): about 8 fold; mRNA levels of Col9a1, Acan and SOX9 (SOX9 target genes): highly upregulated |

The next lines start with results.

| SOX9 activity (SOX9 [2]) | Compound | also measured |
| --- | --- | --- |
| ++ (less than 5, 2 or more) | COc1ccc2cc(-c3csc(NC(=O)CCC(=O)NCCc4ccc(S(=O)(=O)F)cc4)n3)c(=O)oc2c1 |  |
| + (less than 2, greater than 1) | COc1ccc(CCNC(=O)CCC(=O)Nc2nc(-c3ccc(C)cc3)cs2)cc1OC |  |
| +++ (less than 8, 5 or more) | COc1cccc2cc(-c3csc(NC(=O)CCC(=O)NCCc4ccncc4)n3)c(=O)oc12 |  |
| ++ (less than 5, 2 or more) | COc1ccc(CCNC(=O)CCC(=O)Nc2nc(-c3cc4ccc(O)cc4oc3=O)cs2)cc1OC |  |
| + (less than 2, greater than 1) | O=C(CCC(=O)Nc1nc(-c2ccc(F)cc2F)cs1)NCCc1ccncc1 |  |
| ++ (less than 5, 2 or more) | N^1-(4-((5,6-dimethoxy-1-oxo-2,3-dihydro-1H-indene-2-yl)methyl)piperidin-1-yl)-N^4-(4-(7-methoxycoumarin-3-yl)thiazol-2-yl)succinamide |  |
| ++ (less than 5, 2 or more) | COc1ccc2cc(-c3csc(NC(=O)CCC(=O)NCCc4ccc(Cl)c(Cl)c4)n3)c(=O)oc2c1 |  |
| + (less than 2, greater than 1) | COc1ccc2cc(-c3coc(NC(=O)CCC(=O)NCCc4ccncc4)n3)c(=O)oc2c1 |  |
| ++ (less than 5, 2 or more) | COc1ccc2cc(-c3csc(NC(=O)CCC(=O)NCCc4ccc5c(c4)OCO5)n3)c(=O)oc2c1 |  |
| ++ (less than 5, 2 or more) | O=C(CCC(=O)Nc1ncc(C(=O)c2ccccc2)s1)NCCc1ccncc1 |  |
